# This is a selection; strong and weak results do not stand in their true shares. The source made the active and inactive calls.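 How the source made its calls: active means at least 20% inhibition of 6-phosphogluconate dehydrogenase activity; inactive means the rest.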
# The chains behind the UniProt entries cited, without tags or fusion partners.
# UniProt P52209, whole entry: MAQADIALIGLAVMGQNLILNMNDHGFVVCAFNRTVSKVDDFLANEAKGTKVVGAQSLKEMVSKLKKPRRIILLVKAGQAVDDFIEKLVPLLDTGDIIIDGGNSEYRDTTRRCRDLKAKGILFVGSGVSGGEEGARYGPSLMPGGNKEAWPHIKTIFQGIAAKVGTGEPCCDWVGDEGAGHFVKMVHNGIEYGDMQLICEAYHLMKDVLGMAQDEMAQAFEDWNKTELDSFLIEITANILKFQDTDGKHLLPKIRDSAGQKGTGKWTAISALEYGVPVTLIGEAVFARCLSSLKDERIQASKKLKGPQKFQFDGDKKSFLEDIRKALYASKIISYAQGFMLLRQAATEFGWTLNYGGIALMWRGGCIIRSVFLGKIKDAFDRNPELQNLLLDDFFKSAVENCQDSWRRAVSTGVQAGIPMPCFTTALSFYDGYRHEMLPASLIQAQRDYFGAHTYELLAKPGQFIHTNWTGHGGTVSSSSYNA
# Target: 6-phosphogluconate dehydrogenase, decarboxylating (Homo sapiens) (UniProt P52209)
# Experiment: inhibition of human phosphogluconate dehydrogenase – biochemical, recombinant enzyme, NADPH absorbance, primary screen (AID 1159550)
# Details: recombinant 6PGD, NADPH absorbance 341 nm; at 10 µM; active compounds read high
row,Compound,inhibition
1,CN(CCCl)CCCl,inactive: 10.3%
